Ki data for 1 compound are collected here from patent publication US11130780B2, “Inhibitors of growth factor activation enzymes” (Washington University, priority 2015, dated 2021).

Structures are written as SMILES.

For orientation: Ki means a measure of affinity in units of concentration, obtained from inhibition or displacement.

The target of the test is T1, matriptase (Homo sapiens, UniProt Q9Y5Y6).
T1 construct: Charles Craik, UCSF (obtained from another laboratory)
T1 sequence (Q9Y5Y6 615-855 limits assumed): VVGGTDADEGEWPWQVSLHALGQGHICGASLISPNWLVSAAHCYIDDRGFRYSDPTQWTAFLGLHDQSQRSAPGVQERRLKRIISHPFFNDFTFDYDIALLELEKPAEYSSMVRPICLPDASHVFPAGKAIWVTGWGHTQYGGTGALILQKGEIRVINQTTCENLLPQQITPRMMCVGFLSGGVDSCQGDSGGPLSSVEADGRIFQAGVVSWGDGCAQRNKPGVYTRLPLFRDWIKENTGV
Briefly: Fluorescent kinetic enzyme inhibitor assay of matriptase. The following applies: Table 9.1; Fluorogenic Assay. Type of test: biochemical. As for the experimental part:
Inhibitors (11-pt serial dilutions, 0-20 μM final concentration in reaction) were serially diluted in DMSO (2% DMSO final concentration) and then mixed with either recombinant serine protease domain of HGFA [Z. Han, P. K. Harris, D. E. Jones, R. Chugani, T. Kim, M. Agarwal, W. Shen, S. A. Wildman, J. W. Janetka, Acs Med Chem Lett 2014, 5, 1219-1224], matriptase (Charles Craik, UCSF) or hepsin* (#4776-SE-010, R&D Systems, Minneapolis, Minn.) in black 384 well plates (Corning #3575. Corning, N.Y.). […] The final substrate concentrations for all assays were at the Km for the respective enzymes. Changes in fluorescence (excitation at 380 nm and emission at 460 nm) were measured at room temperature over time in a Biotek Synergy 2 plate reader (Winnoski, Vt.). Using GraphPad Prism version 6.04 software program, (GraphPad Software, San Diego, Calif., www.graphpad.com), a four parameter curve fit was used to determine the inhibitor IC50s from a plot of the mean reaction velocity versus the inhibitor concentration. The IC50 values represent the average of three separate experimental determinations.

For `Cc1ccc(S(=O)(=O)N[C@@H](Cc2cccc(C(=N)N)c2)C(=O)N2CCN(C(=O)OCc3ccccc3)CC2)cc1` [Compound 25h, (S)-Benzyl 4-(3-(3-carbamimidoylphenyl)-2-(4-methylphenylsulfonamido)propanoyl)piperazine-1-carboxylate], the Ki is 430 nM.
